From patent US20250164503A1
Values belong to the substance of their own block, whether it stands above or below them.

How the values were obtained:
[1] = target: combinatorial H3K4me3+H3 poly-acetylated dNuc; assay: dCypher-Alpha bead proximity titration on dNucs; apparent EC50
H3K4me3 dNuc = assay: as above
[2] = target: poly-acetylated H3 (H3K4,9,14,18ac) dNuc; assay: as above
[3] = target: combinatorial H3K4me3+H3 poly-acetylated dNuc; assay: CUT&RUN, recovery of DNA-barcoded spike-in dNucs
[4] = target: combinatorial H3K4me3+H3 poly-acetylated dNuc; assay: dCypher-Alpha bead proximity titration on dNucs
H3K9me3 dNuc [5] = assay: dCypher assay on dNuc substrates
H3K9me3 dNuc [6] = assay: CUT&RUN, recovery of DNA-barcoded spike-in dNucs

- EC50 [1]: 2.7 nM
- EC50 (H3K4me3 dNuc): 77.8 nM
- EC50 [2]: 61 nM
- fold preference for the combinatorial PTM over either single PTM individually [3]: 8 fold
- fold improvement in binding on the combinatorial dNuc vs. the singly-modified dNucs [4]: 25 fold
Substance: GST-BPTF (PHD-BD) (designed binder)

- relative binding specificity toward H3K9me3 over H3K9me2 (H3K9me3 dNuc [5]): 10 fold
Substance: MBP-1xCBX1 (designed binder)

- fold increase in H3K9me3 binding compared to the single reader domain (H3K9me3 dNuc [5]): > 100 fold
Substance: MBP-2xCBX1 (designed binder)

- fold improvement of on-target binding activity compared to the single reader domain (H3K9me3 dNuc [5]): > 100 fold
- relative binding specificity toward H3K9me3 over H3K9me2 (H3K9me3 dNuc [5]): > 100 fold
- fold preference for its target among H3K9 me0/me1/me2/me3 spike-in dNucs (H3K9me3 dNuc [6]): > 10 fold
Substance: MBP-3xCBX1 (designed binder)
